Experimental data taken from patent publication US9617283B2, “Bicyclic heterocycle compounds and their uses in therapy” (ASTEX THERAPEUTICS LIMITED, priority 2012, dated 2017).
Where a name gives a salt, the structure may show the parent alone.

Chains of the proteins cited; added tags and fusions are not shown. Residues count along the entry.
UniProt Q13490, 267-363: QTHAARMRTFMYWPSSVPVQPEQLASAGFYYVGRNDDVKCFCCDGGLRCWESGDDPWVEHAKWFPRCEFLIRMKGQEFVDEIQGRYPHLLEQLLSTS
UniProt P98170, 252-350: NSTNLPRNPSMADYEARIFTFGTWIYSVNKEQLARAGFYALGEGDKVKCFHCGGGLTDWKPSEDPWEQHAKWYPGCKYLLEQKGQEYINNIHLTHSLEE

Experiments:
[1] = target: T1, BIR3 domain of human cIAP-1 (residues 267-363) (Homo sapiens, UniProt Q13490); experiment: cIAP-1 in vitro competitive displacement binding assay (fluorescence polarization); details: percent inhibition (PI) at 0.012 μM; for inhibition at 0.012 µM: 3 h, read-out: cIAP1 IC50 or PI μM
T1 construct: human cIAP-1 (residues 267-363) fused to a GST-tag; GST-tag (cleaved yes); made in house; host or cells: Escherichia coli

[2] = target: T2, BIR3 domain of human XIAP (residues 252-350) (Homo sapiens, UniProt P98170); experiment: XIAP in vitro competitive displacement binding assay (fluorescence polarization); details: 1 h; percent inhibition (PI) at 0.04 μM; read-out: Xiap IC50 or PI μM
T2 construct: BIR3 domain of human XIAP (residues 252-350); His-tag (cleaved yes); made in house; host or cells: Escherichia coli

SMILES	inhibition at 0.012 µM [1]	inhibition at 0.04 µM [2]	cIAP1 IC50 or PI μM ([1]; 180 min)
C[C@@H]1CN(CC(=O)N2CC(C)(C)c3ncc(Cc4ccc(F)cc4)cc32)[C@@H](CN2CC(C)(C)CC2=O)CN1 [Example 1, 1-{[(2R,5R)-1-(2-{6-[(4-Fluorophenyl)methyl]-3,3-dimethyl-1H,2H,3H-pyrrolo[3,2-b]pyridin-1-yl}-2-oxoethyl)-5-methylpiperazin-2-yl]methyl}-4,4-dimethylpyrrolidin-2-one dihydrochloride]	98%		
C[C@@H]1CN(CC(=O)N2CC(C)(C)c3ncc(Cc4ccc(F)cc4)cc32)[C@@H](CN2C[C@@H](C)OC2=O)CN1 [Example 9, (5R)-3-{[(2R,5R)-1-(2-{6-[(4-Fluorophenyl)methyl]-3,3-dimethyl-1H,2H,3H-pyrrolo[3,2-b]pyridin-1-yl}-2-oxoethyl)-5-methylpiperazin-2-yl]methyl}-5-methyl-1,3-oxazolidin-2-one]		52%	
C[C@@H]1CN(CC(=O)N2CC(C)(C)c3ncc(Cc4ccc(F)cc4)cc32)[C@@H](CN2CCC(F)(F)C2=O)CN1 [Example 11, 3,3-Difluoro-1-{[(2R,5R)-1-(2-{6-[(4-fluorophenyl)methyl]-3,3-dimethyl-1H,2H,3H-pyrrolo[3,2-b]pyridin-1-yl}-2-oxoethyl)-5-methylpiperazin-2-yl]methyl}pyrrolidin-2-one dihydrochloride]	89%	45%	
C[C@@H]1CN(CC(=O)N2CC(C)(C)c3ncc(Cc4ccc(F)cc4)cc32)[C@@H](CN2Cc3ncccc3C2=O)CN1 [Example 15, 6-{[(2R,5R)-1-(2-{6-[(4-Fluorophenyl)methyl]-3,3-dimethyl-1H,2H,3H-pyrrolo[3,2-b]pyridin-1-yl}-2-oxoethyl)-5-methylpiperazin-2-yl]methyl}-5H,6H,7H-pyrrolo[3,4-b]pyridin-5-onne dihydrochloride]	100%	74%	
C[C@@H]1CN(CC(=O)N2CC(C)(C)c3ncc(Cc4ccc(F)cc4)cc32)[C@@H](CN2CC(=O)NCC2=O)CN1 [Example 22, 1-{[(2R,5R)-1-(2-{6-[(4-Fluorophenyl)methyl]-3,3-dimethyl-1H,2H,3H-pyrrolo[3,2-b]pyridin-1-yl}-2-oxoethyl)-5-methylpiperazin-2-yl]methyl}piperazine-2,5-dione]		38%	
C[C@@H]1CN(CC(=O)N2CC(C)(C)c3ncc(Cc4ccc(F)cc4F)cc32)[C@@H](CN2Cc3ccccc3C2=O)CN1 [Example 76, 2-{[(2R,5R)-1-(2-{6-[(2,4-Difluorophenyl)methyl]-3,3-dimethyl-1H,2H,3H-pyrrolo[3,2-b]pyridin-1-yl}-2-oxoethyl)-5-methylpiperazin-2-yl]methyl}-2,3-dihydro-1H-isoindol-1-one dihydrochloride]	100%	84%	
COc1ccc2c(c1)CN(C[C@H]1CN[C@H](C)CN1CC(=O)N1CC(C)(C)c3ncc(Cc4ccc(F)cc4)cc31)C2=O [Example 94, 2-{[(2R,5R)-1-(2-{6-[(4-Fluorophenyl)methyl]-3,3-dimethyl-1H,2H,3H-pyrrolo[3,2-b]pyridin-1-yl}-2-oxoethyl)-5-methylpiperazin-2-yl]methyl}-5-methoxy-2,3-dihydro-1H-isoindol-1-one dihydrochloride]		83%	96%@0.012
C[C@@H]1CN(CC(=O)N2CC(C)(C)c3ncc(Cc4ccc(F)cc4)cc32)[C@@H](CN2Cc3cccnc3C2=O)CN1 [Example 95, 6-{[(2R,5R)-1-(2-{6-[(4-Fluorophenyl)methyl]-3,3-dimethyl-1H,2H,3H-pyrrolo[3,2-b]pyridin-1-yl}-2-oxoethyl)-5-methylpiperazin-2-yl]methyl}-5H,6H,7H-pyrrolo[3,4-b]pyridin-7-one dihydrochloride]	98%	72%	
